{"source": "patent EP1400530A1", "about": "“Suppression of immune response via inhibition of cathepsin S” (MASSACHUSETTS INSTITUTE OF TECHNOLOGY, priority 1996, dated 1997)", "key": {"HOM2 cells [1]": {"system": "HOM2 cells", "test": "35S-methionine/cysteine pulse/chase of HOM2 cells, immunoprecipitation of class II with Tu36, SDS-PAGE (Ii processing and SDS-stable peptide-loaded αβ dimers)"}, "HOM2 cells [2]": {"system": "HOM2 cells", "settings": "inhibition of cysteine proteases with leupeptin (Neefjes and Ploegh 1992); cited from earlier work"}}, "data": [{"smiles": "CCOC(=O)[C@H]1O[C@@H]1C(=O)N[C@@H](CC(C)C)C(=O)NCCC(C)C", "note": "(relative stereo) [E64D]", "values": [{"measurement": "buildup of class II-associated Ii fragment", "setting": "HOM2 cells [1]; E64D, concentration not stated in Example 2", "value": "buildup of a class II-associated 23 kDa Ii fragment"}]}, {"smiles": "CC(C)[C@H](NC(=O)[C@H](Cc1ccccc1)C[C@H](O)[C@H](Cc1ccccc1)NC(=O)OC(C)(C)C)C(=O)N[C@@H](Cc1ccccc1)C(=O)N1CCOCC1", "note": "[CGP 53437]", "values": [{"measurement": "accumulation of Ii fragments", "setting": "HOM2 cells [1]; 5 µM or 50 µM CGP 53437, chase 5 hours", "value": "did not result in accumulation of Ii fragments"}]}, {"smiles": "CC(C)C[C@H](NC(=O)N1CCOCC1)C(=O)N[C@H](/C=C/S(=O)(=O)c1ccccc1)CCc1ccccc1", "note": "[LHVS, morpholinurea-leucine-homophenylalanine-vinylsulfone phenyl]", "values": [{"measurement": "accumulation of class II-associated Ii fragment", "setting": "HOM2 cells [1]; 1 nM and 5 nM LHVS, chase 5 hours", "value": "accumulation of a class II-associated 13 kDa Ii fragment"}]}, {"smiles": "CC(=O)N[C@@H](CC(C)C)C(=O)N[C@@H](CC(C)C)C(=O)N[C@H](C=O)CCCNC(=N)N", "note": "[leupeptin]", "values": [{"measurement": "SDS-stable complexes (peptide-loaded αβ-dimers)", "setting": "HOM2 cells [2]", "value": "decrease"}]}]}
